From the kinase profiling compilation of Christmann-Franck et al. (2016)

Sequences of proteins named here, by UniProt entry; tags and fusion partners are left off. A change or cut given only in a name is not applied to a line headed by its entry.
UniProt P52333: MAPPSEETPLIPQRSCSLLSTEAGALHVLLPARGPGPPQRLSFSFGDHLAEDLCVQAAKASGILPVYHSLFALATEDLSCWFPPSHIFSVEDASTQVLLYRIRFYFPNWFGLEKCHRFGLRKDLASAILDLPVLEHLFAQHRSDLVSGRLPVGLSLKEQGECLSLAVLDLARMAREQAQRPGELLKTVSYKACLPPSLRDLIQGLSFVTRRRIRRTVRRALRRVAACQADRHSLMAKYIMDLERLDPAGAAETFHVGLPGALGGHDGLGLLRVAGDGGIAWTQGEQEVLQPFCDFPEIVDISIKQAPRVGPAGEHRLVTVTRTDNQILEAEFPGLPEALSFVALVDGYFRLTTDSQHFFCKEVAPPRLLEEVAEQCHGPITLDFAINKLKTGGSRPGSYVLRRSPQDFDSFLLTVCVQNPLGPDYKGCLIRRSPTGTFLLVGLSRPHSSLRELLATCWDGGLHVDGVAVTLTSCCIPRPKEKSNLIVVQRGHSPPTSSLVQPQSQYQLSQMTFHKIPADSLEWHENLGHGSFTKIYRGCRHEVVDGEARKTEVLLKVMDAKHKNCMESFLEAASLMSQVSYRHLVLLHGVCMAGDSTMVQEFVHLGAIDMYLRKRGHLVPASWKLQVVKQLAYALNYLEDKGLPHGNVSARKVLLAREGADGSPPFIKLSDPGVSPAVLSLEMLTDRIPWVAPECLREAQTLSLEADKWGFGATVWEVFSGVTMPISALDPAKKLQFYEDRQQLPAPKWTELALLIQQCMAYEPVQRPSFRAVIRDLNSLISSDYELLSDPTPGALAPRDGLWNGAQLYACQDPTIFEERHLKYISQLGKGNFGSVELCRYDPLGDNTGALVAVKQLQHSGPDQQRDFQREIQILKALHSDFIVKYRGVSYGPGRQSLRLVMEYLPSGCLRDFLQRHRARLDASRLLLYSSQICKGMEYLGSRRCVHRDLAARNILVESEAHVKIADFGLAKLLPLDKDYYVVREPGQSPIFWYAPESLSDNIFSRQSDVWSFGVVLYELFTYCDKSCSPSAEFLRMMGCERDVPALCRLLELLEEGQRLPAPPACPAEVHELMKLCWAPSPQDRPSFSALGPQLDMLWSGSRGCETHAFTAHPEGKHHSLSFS

Experiments:
Assay in all cases: KINOMEscan competition binding
Settings in all cases: compound 10.0 µM
PRKACA (human) = PRKACA (human) (UniProt P17612)
PRKACB (human) = PRKACB (human) (UniProt P22694)
[1] = target: JAK3 JH1 catalytic (human) (UniProt P52333)

## CC1=C(C(=O)Nc2cc3cn[nH]c3cc2F)C(c2ccc(C(F)(F)F)cc2)CC(=O)N1 (stereo not drawn)
PRKACA (human)
  kinase still bound, per cent of control: 4.2%
PRKACB (human)
  kinase still bound, per cent of control: 6.4%
[1]
  kinase still bound, per cent of control: 3.2%
